This is a selection; strong and weak results do not stand in their true shares. Active and inactive are the calls of the source. Rule as the data show it: active = inhibition mostly above about 24% (no sharp cut-off); inactive = mostly below about 32%.
Assay: NALP1 inflammasome inhibitors in reconstituted yeast, colorimetric, S. cerevisiae, triplicate retest (AID 2071)
Settings: S. cerevisiae NALP1/ASC/caspase-1 growth, X-gal OD620, 72 h; at 10 µM; active compounds read high
With `O=P1(Nc2ncccn2)COc2ccccc2OC1` the inhibition was inactive: 8.7%. In the case of `Nc1cccc([As](=O)(O)c2ccccc2)c1`, the inhibition is reported as inactive: -12.2%. For `O=[As](O)(c1cccs1)c1cccs1`, the inhibition was inactive: -19.6%. In the case of `Cc1ccc(OCC(=O)OC2CN3CCC2CC3)cc1` (configuration not stated), the inhibition is reported as inactive: 13.1%. In the case of `O=P1(Nc2ccc(Br)cn2)COc2ccccc2OC1`, the inhibition is reported as inactive: 2.9%. With `CC1CCC(C(C)C)C(OP(=O)(Nc2ccccn2)c2ccccc2)C1` (configuration not stated) the inhibition was inactive: -4.9%. For `Cc1ccc(C(=O)OC2CN3CCC2CC3)cc1` (configuration not stated), the inhibition was inactive: 12%. In the case of `Cc1nn(-c2ccccc2)c2c1P(=O)(N1CCOCC1)N(C)C(c1ccccc1)=N2` (configuration not stated), the inhibition is reported as inactive: -0.1%. For `CN(C)C1(CNC(=O)c2ccc(S(C)(=O)=O)cc2)CCCCC1`, the inhibition was inactive: 15.5%. With `O=C(/C=C/c1ccccc1)OC1CN2CCC1CC2` (configuration not stated) the inhibition was inactive: 14.9%. In the case of `CC(C)/C=N\N=C(\N)N[N+](=O)[O-]`, the inhibition is reported as inactive: -20.4%. In the case of `CN(C(=O)Cc1ccc(Cl)c(Cl)c1)[C@@H]1CCCC[C@H]1N1CCCC1`, the inhibition is reported as inactive: 12.9%. With `O=[As](O)(c1ccccc1Br)c1ccccc1Br` the inhibition was inactive: 18.1%. With `CCOP(=O)(NC(=NC(C)c1ccccc1)NC(C)c1ccccc1)OCC` (configuration not stated) the inhibition was inactive: 7.8%. In the case of `O=P1(Nc2ccccn2)COc2ccccc2OC1`, the inhibition is reported as inactive: 0.1%. In the case of `CCC1=CC2Cc3nc4ccc(Cl)cc4c(N)c3C(C1)C2` (configuration not stated), the inhibition is reported as inactive: 20.4%. In the case of `CCOP(=O)(Nc1ccc(C)cn1)OCC`, the inhibition is reported as inactive: -10%. With `CC(C)(C)C(=O)NC(Sc1ncccn1)C(Cl)(Cl)Cl` (configuration not stated) the inhibition was inactive: -7.3%. For `Clc1n[nH]nc1-c1nn[nH][15n]1`, the inhibition was inactive: -16.7%. For `Nc1cccc2c([As](=O)(O)O)cccc12`, the inhibition was inactive: 6%. In the case of `Cc1ccc(NCCc2c([N+](=O)[O-])cc([N+](=O)[O-])cc2[N+](=O)[O-])cc1`, the inhibition is reported as inactive: 24.3%. With `CCCOP(=S)(Nc1nc(N)cc(=O)[nH]1)OCCC` the inhibition was inactive: -3%. With `CCOP(=O)(Nc1cccc2ccccc12)OCC` the inhibition was inactive: 20.4%. For `COc1cc(C2NCCC3(OCCO3)C2(C)C)cc(OC)c1OC` (configuration not stated), the inhibition was inactive: 17.4%. In the case of `O=C(OC1CN2CCC1CC2)c1ccc(Cl)cc1` (configuration not stated), the inhibition is reported as inactive: 5%. In the case of `CS(=O)(=O)c1ccc(Cl)c(NC(=O)COC(=O)C(O)(c2ccccc2)c2ccccc2)c1`, the inhibition is reported as inactive: -2.7%. For `O=[As](O)(O)c1cccnc1`, the inhibition was inactive: -0.3%. In the case of `COc1cc(C(=O)NCC2(N3CCOCC3)CCCCC2)cc(Cl)c1OC(C)C`, the inhibition is reported as inactive: 7.2%. With `O=[As](O)(c1cccc(O)c1)c1cccc(O)c1` the inhibition was inactive: 3.1%. With `NC(=O)Nc1ccc([As](=O)(O)O)cc1` the inhibition was inactive: -1.9%. In the case of `CCOP1(=S)c2c(C)nn(CCC#N)c2N=C(c2ccc(F)cc2)N1C` (configuration not stated), the inhibition is reported as inactive: -2.7%. For `CN(C(=O)Cc1ccccc1)[C@@H]1CC[C@]2(CCCO2)C[C@H]1N1CCCC1`, the inhibition was inactive: -8.3%. With `O=[N+]([O-])c1ccc2c(c1)nnn2O` the inhibition was inactive: 0.9%. In the case of `O=P(Nc1nccs1)(Oc1ccccc1)Oc1ccccc1`, the inhibition is reported as inactive: 12.5%. For `O=P(Nc1nccs1)(c1ccccc1)c1nc2ccccc2s1` (configuration not stated), the inhibition was inactive: -26%. In the case of `CCOP1(=S)c2c(C)nn(CCC#N)c2N=C(c2ccccc2F)N1C` (configuration not stated), the inhibition is reported as inactive: -7.7%. In the case of `CS(=O)(=O)c1cc([N+](=O)[O-])c2no[n+]([O-])c2c1`, the inhibition is reported as inactive: 17.5%. With `Nc1ccccc1[As](=O)(O)c1ccccc1` the inhibition was inactive: -13.7%. In the case of `O=C(O)COc1ccc([As](=O)(O)O)cc1[N+](=O)[O-]`, the inhibition is reported as inactive: 17.5%. With `ClCCSc1nnc(-c2cccnc2)o1` the inhibition was inactive: -46%. For `CC(C)c1ccc(OP(=O)(Nc2ccccn2)Oc2ccccc2F)cc1` (configuration not stated), the inhibition was inactive: -14.9%. For `O=[N+]([O-])c1cc([N+](=O)[O-])c(-c2ccn[nH]2)s1`, the inhibition was inactive: 46.2%. With `CC(C)NC(=O)NP(=O)(Oc1ccccc1)Oc1ccccc1` the inhibition was inactive: 6.3%. With `CCN(CC)C(=S)SC(NC=O)C(Cl)(Cl)Cl` (configuration not stated) the inhibition was inactive: 8.7%. In the case of `O=[As](O)(c1ccc(O)cc1)c1ccccc1O`, the inhibition is reported as inactive: -3.2%. With `C[As](=O)(O)c1cccc(C(=O)O)c1` the inhibition was inactive: 12.9%. In the case of `Cc1ccc(OP(=O)(Nc2ccc([N+](=O)[O-])cn2)Oc2ccc(C)cc2)cc1`, the inhibition is reported as inactive: 23.5%. With `Cc1ccc2nc3c(c(C)c2c1)CC(C(Cl)Cl)S3` (configuration not stated) the inhibition was inactive: 22.2%. In the case of `COc1ccc(N/C(=N/P(=O)(N2CCOCC2)N2CCOCC2)N2CCOCC2)cc1`, the inhibition is reported as inactive: 16.9%. For `Cc1c2c(nc3ccccc13)SC(C(Cl)Cl)C2` (configuration not stated), the inhibition was inactive: 26.2%. In the case of `Cc1cc(=O)[nH]c(N[N+](=O)[O-])n1`, the inhibition is reported as inactive: 14.2%. With `O=C(OC1CN2CCC1CC2)C12CC3CC(CC(C3)C1)C2` (configuration not stated) the inhibition was inactive: 47.5%. With `COc1cc(I)ccc1[As](=O)(O)O` the inhibition was inactive: -7%. For `COc1ccc2nc(NP(=O)(c3ccccc3)c3ccccc3)sc2c1`, the inhibition was inactive: -3.6%. With `O=C(OC1CN2CCC1CC2)c1cccc([N+](=O)[O-])c1` (configuration not stated) the inhibition was inactive: 11.9%. For `CCOC(=O)c1ccc(NC(=O)C(C)(CCl)SC)cc1` (configuration not stated), the inhibition was inactive: -8.7%. For `CCC(C)N(CC(C)C)C(=S)SC(NC(C)=O)C(Cl)(Cl)Cl` (configuration not stated), the inhibition was inactive: 26.1%. For `COP1(=S)c2c(C)nn(CCC#N)c2N=C(c2ccc(F)cc2)N1C` (configuration not stated), the inhibition was active: 34.4%. In the case of `O=C(Nc1ccncc1[N+](=O)[O-])c1ccc([N+](=O)[O-])cc1[N+](=O)[O-]`, the inhibition is reported as inactive: 8.2%. In the case of `O=C(COc1ccccc1)OC1CN2CCC1CC2` (configuration not stated), the inhibition is reported as inactive: 26%. In the case of `CCOC(=O)Nc1cccc([As](=O)(O)O)c1`, the inhibition is reported as inactive: 9.9%. In the case of `O=P(Nc1ccccn1)(c1cccc2ccccc12)c1cccc2ccccc12`, the inhibition is reported as inactive: 5%. With `Cc1cc(SC(NC=O)C(Cl)(Cl)Cl)ncn1` (configuration not stated) the inhibition was inactive: -22.9%. With `O=[N+]([O-])c1ccc(Nc2ccc(Oc3ccc([N+](=O)[O-])cc3[N+](=O)[O-])cc2)c([N+](=O)[O-])c1` the inhibition was inactive: 7.7%. With `CCOC(=O)Nc1ccc([As](=O)(O)O)c(O)c1` the inhibition was inactive: 6.2%. For `Cc1cc(SC(NC(=O)c2ccccc2)C(Cl)(Cl)Cl)nc(C(C)C)n1` (configuration not stated), the inhibition was inactive: 19%. For `CCCCOc1ccc(C(=O)NCC2(N3CCCCC3)CCCCC2)cc1OC`, the inhibition was inactive: 2%.

Reference: PubChem BioAssay AID2071 (Sanford-Burnham Center for Chemical Genomics, 2009)
